Experimental data reported in US10377677B2, “Fertilizer compositions and methods of making and using the same” (dated 2019).

Conditions: stabilizer materials each at 25 wt. %, 5 in diameter tube, 200 g booster

Al(OH)3
Witness Plate: perf
